# Reference: US20120252853A1, “Positive allosteric modulators of nicotinic acetylcholine receptor” (H. Lundbeck A/S, priority 2011, published 2012)
# The chains behind the UniProt entries cited, without tags or fusion partners. Residues count along the entry.
# UniProt P36544, 23-502 limits assumed: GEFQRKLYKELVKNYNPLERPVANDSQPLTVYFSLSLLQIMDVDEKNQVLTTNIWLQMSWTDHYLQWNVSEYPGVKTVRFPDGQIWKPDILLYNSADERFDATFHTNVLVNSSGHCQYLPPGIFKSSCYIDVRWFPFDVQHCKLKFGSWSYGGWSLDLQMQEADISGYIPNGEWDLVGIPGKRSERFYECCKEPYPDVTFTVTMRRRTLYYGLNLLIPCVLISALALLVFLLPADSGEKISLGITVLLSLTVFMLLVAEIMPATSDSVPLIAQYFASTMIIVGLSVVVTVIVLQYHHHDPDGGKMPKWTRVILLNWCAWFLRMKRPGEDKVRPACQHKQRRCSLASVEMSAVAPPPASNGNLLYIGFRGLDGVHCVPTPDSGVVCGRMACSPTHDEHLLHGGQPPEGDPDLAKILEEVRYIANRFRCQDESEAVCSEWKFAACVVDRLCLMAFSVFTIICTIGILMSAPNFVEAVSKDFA
# Target: human α7 receptor (Homo sapiens, UniProt P36544)
# Experiment: α7 NNR flux assay (FDSS Ca assay)
# Details: positive allosteric modulation; rat GH4C1 cell line stably expressing human α7; acetylcholine 20 μM; % modulation relative to PNU-120596 set to 100%
# Description: In this version of the assay, the human α7 receptor is stably expressed in the rat GH4C1 cell line. The assay was used to identify positive allosteric modulators (PAMs) of the α7 receptor. Activation of the channel was measured by loading cells with the calcium-sensitive fluorescent dye Calcium-4 (Assay kit from Molecular Devices), and then measuring real-time changes in fluorescence upon treatment with test compounds.
# The cell line ChanClone GH4C1-nAChRalpha7 from Genionics was seeded from frozen stock in 384-well plates in culture media 2-3 days before experiment to form an approximately 80% confluent layer on the day of experiment.
# The cell culture were split into “22.5 cm×22.5 cm”-plates with approximately 100×10^3 cells/cm^2. After four days incubation in a humidified incubator at 37° C. and 5% CO2, it had grown to an 80-90% confluent layer, and the cells were harvested.
# Two or three days before the experiment the cells were seeded in 384 well plates from Greiner bio-one (781946, CELLCOAT, Poly-D-Lysine, black, μClear). […]
# Culture media were removed from the cell plates and 20 μL loading buffer was added in each well. […] Now the cell plates were ready to run in the Functional Drug Screening System (FDSS) The assay buffer was HBSS with 20 mM HEPES, pH 7.4 and 3 mM CaCl2. […]
# Results were calculated as % modulation of test compound compared to the reference PNU-120596 set to 100%.
smiles,measurement,value
Cc1cc2cc(CNC(=O)c3oc(C)nc3C)ccc2[nH]1,EC50,9.5 µM
